Results taken from publication PMC11433870, “Neurotoxicity, Neuroprotection, In Vitro MAOA/MAOB Inhibitory Activity Assessment, Molecular Docking, and Permeability Assay Studies of Newly Synthesized Hydrazones Containing a Pyrrole Ring” (Molecules, 2024).

Conditions: pH 7.4, 4 h, 25 °C

| Structure (SMILES) | PAMPA BBB permeability class |
| --- | --- |
| CCOC(=O)c1cc(-c2ccc(Br)cc2)n(CCC(=O)NN=Cc2ccc(OC)cc2OC)c1C [8e] | medium (When 6 < −logPe < 5, the compound was classified as medium permeable) |
| CCOC(=O)c1cc(-c2ccc(Br)cc2)n(CCC(=O)NN=Cc2ccc(N(C)C)cc2)c1C [8a] | medium (When 6 < −logPe < 5, the compound was classified as medium permeable) |
